Measurements reported in patent US11287428B2, “PD1 and PDL-1 expression during progression from myelodysplastic syndrome to acute myelogenous leukemia” (H. Lee Moffitt Cancer Center and Research Institute, Inc., priority 2016, dated 2022).

Test system: CD71 from BM MNC
Assay: Apoptosis of BM cells in rhPD-L1 coated wells
Type: cell-based, human
Settings: rhPD-L1 coated wells of 24-well plate, 24 h
Method: BM cells were placed in rhPD-L1 coated wells of 24-well plate for 24 h.

## rhPDL1: recombinant human PD-L1 coated on wells of 24-well plate
  apoptosis of CD71 from BM MNC: increase apoptosis
